Reference: publication PMC9469500, “Targeting an Initiator Allergen Provides Durable and Expansive Protection against House Dust Mite Allergy” (ACS Pharmacology & Translational Science, 2022)
Where a name gives a salt, the structure may show the parent alone.

Target: T1, Der p 1 (Dermatophagoides pteronyssinus, UniProt P08176)
T1 construct: from tissue; host or cells: spent culture medium of Dermatophagoides pteronyssinus (native HDM extract); ammonium sulfate precipitation, size exclusion, SBTI column, Resource Q
T1 sequence (P08176 99-320): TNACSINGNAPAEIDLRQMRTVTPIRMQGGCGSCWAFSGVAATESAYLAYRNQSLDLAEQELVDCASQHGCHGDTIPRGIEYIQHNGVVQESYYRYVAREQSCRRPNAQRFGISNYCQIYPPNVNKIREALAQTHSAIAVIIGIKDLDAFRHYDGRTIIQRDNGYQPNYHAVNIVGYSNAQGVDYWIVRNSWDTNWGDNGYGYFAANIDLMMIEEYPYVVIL
Assay: biochemical
Conditions: read-out: target potency (Ki)
Method: Assays were assembled in 96-well plate format using a PerkinElmer Multiprobe II Plus HTS EX robot (PerkinElmer, UK). […] Reactions were initiated by the addition of 10 μL Der p 1 dissolved in the reaction buffer at 2.5 μg/mL and followed at 30 °C by measurement of fluorescence (excitation/emission 330/420 nm) using either a Fusion Alpha-FP or Envision plate reader fitted with a temperature-controlled carrier (PerkinElmer, UK).
Inhibitor kinetics were analyzed from progress curves. For reversible inhibitors, IC50 values were calculated conventionally.

CC(C)[C@H](NC(=O)[C@H](C)NC(=O)[C@@H](NC(=O)C1CC[N+](C)(C)CC1)C(C)(C)C)C(=O)C(=O)NCc1ccccc1 [Compound 2, 4-{(S)-1-[(S)-1-((S)-1-benzylaminooxalyl-2-methyl-propylcarbamoyl)-ethylcarbamoyl]-2,2-dimethyl-propylcarbamoyl}-1,1-dimethyl-piperidinium formate]
Ki: 1 nM
